Laboratory results reported in ChEMBL document CHEMBL1124573, “Alterations in the stereochemistry of the kappa-selective opioid agonist U50,488 result in high-affinity sigma ligands” (1989).

Sequences of proteins named here, by UniProt entry; tags and fusion partners are left off. A change or cut given only in a name is not applied to a line headed by its entry.
UniProt P41144: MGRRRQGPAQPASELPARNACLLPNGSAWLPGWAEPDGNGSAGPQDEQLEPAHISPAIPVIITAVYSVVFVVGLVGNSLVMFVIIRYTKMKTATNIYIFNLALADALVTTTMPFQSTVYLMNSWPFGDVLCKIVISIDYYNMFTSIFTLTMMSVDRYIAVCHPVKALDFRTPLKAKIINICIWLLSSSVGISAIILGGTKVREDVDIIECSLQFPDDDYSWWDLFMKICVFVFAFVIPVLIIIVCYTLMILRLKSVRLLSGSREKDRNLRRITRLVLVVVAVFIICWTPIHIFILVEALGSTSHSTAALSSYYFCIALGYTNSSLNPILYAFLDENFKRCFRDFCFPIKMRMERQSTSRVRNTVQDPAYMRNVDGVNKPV
UniProt P61169, whole entry, looked up: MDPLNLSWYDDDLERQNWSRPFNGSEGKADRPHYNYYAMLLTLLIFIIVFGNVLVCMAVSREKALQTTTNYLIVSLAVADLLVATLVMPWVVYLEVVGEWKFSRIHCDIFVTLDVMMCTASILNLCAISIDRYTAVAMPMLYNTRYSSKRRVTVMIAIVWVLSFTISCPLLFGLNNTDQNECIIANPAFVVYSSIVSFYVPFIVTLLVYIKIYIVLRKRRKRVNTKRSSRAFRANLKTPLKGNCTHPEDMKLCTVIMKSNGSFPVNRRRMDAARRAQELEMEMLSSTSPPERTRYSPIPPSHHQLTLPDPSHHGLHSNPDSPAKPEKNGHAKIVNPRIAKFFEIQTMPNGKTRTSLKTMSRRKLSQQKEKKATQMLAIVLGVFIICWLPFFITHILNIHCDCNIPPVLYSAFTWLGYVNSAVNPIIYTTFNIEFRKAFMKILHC

What was measured:
[1] = molecular target: T1, Kappa-type opioid receptor (Cavia porcellus, UniProt P41144); assay: Compound was evaluated for binding affinity towards kappa opioid receptor using [3H]-BREM in guinea pig ileum
[2] = molecular target: T1, Kappa-type opioid receptor; assay: Compound was evaluated for binding affinity towards Opioid receptor kappa 1 using [3H]BREM in guinea pig ileum
[3] = molecular target: T1, Kappa-type opioid receptor; assay: Compound was evaluated for binding affinity towards kappa opioid receptor using [3H](-)-U-69,593 in guinea pig ileum
D(2) dopamine receptor = D(2) dopamine receptor (Rattus norvegicus, UniProt P61169); assay: Compound was evaluated for binding affinity towards Dopamine receptor D2 using [3H]SULP in rat

| SMILES | Ki [1] [nM] | Ki [2] [nM] | Ki [3] [nM] | Ki (D(2) dopamine receptor) [nM] |
| --- | --- | --- | --- | --- |
| CN(C(=O)Cc1ccc(Cl)c(Cl)c1)C1CCCCC1N1CCCC1 (stereo not drawn) | 1300 | 109 | 299 |  |
| CN(C(=O)Cc1ccc(Cl)c(Cl)c1)[C@H]1CCCC[C@@H]1N1CCCC1 | 44 |  | 0.89 |  |
| CN(C(=O)Cc1ccc(Cl)c(Cl)c1)[C@H]1CCCC[C@H]1N1CCCC1 |  |  | 167 | 3730 |
| CN(C(=O)Cc1ccc(Cl)c(Cl)c1)[C@@H]1CCCC[C@@H]1N1CCCC1 |  |  |  | 14000 |
